Values of other authors in paper PMC10994248, “First-In-Human Phase I Study of Tinengotinib (TT-00420), a Multiple Kinase Inhibitor, as a Single Agent in Patients With Advanced Solid Tumors” (The Oncologist, 2024).

System: FGFR2 fusion or rearranged cholangiocarcinoma
Settings: after failure of first-line chemotherapy ref 20-22; cited from earlier work

C=CC(=O)N1CC[C@H](n2nc(C#Cc3cc(OC)cc(OC)c3)c3c(N)ncnc32)C1 [futibatinib]
Objective response rate: 42%
